Source: PubChem BioAssay AID1777 (Sanford-Burnham Center for Chemical Genomics, 2009)
The entries are a selection whose mix differs from that of the whole data set. Entries with a potency or affinity are not part of this list. Some results for these compounds are left out of this collection, so the calls shown say nothing about other tests. The source made the active and inactive calls. No stated cut-off is given here; in the data, active means activation above about 50% (passing the limit was not always enough); inactive means the rest.

By UniProt entry, the sequences of proteins in these tests, tags left out.
UniProt P41145, whole entry: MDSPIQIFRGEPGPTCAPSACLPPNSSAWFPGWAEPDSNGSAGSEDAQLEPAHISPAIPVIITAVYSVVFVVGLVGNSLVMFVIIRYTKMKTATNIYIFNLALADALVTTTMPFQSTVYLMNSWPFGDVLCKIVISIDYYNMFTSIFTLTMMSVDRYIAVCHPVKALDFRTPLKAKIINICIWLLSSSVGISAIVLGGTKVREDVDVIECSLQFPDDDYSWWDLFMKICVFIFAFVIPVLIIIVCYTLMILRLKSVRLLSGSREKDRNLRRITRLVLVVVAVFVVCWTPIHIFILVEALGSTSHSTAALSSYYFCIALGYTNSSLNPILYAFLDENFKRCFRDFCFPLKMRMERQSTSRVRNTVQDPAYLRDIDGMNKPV

The molecules below were run against Kappa-type opioid receptor (Homo sapiens) (UniProt P41145) (assay: kappa opioid receptor activators – cell-based, luminescence, uHTS, primary screen (AID 1777)). Conditions: KOR beta-arrestin recruitment, at 10 µM, hits give high values.

Structure (SMILES)	activation
O=C(NCC1(N2CCCCC2)CCCCC1)c1cc(F)c(F)cc1Cl	inactive: -1.9%
C=CCN1CCN(CCOC(=O)C(O)(c2ccccc2)c2ccccc2)CC1	inactive: -1.3%
O=C(NCC1(N2CCCCC2)CCCCC1)c1cccc(Br)c1	inactive: 1.3%
CCN1CCCC(OC(=O)C2(O)c3ccccc3C=Cc3ccccc32)C1 (centres undefined)	inactive: 0%
Cc1cc(C(=O)NCC2(N3CCCCC3)CCCCC2)ccc1[N+](=O)[O-]	inactive: -4.7%
COc1ccc(C(=O)NCC2(N(C)C)CCCCC2)cc1	inactive: 1.2%
CN(C)c1ccc(C(=O)NCC2(N(C)C)CCCCC2)cc1	inactive: -5%
CN(C)C1CCCC1OC(=O)C(O)(c1ccccc1)c1ccccc1 (centres undefined)	inactive: -6.8%
Cc1ccccc1C(=O)NCC1(N2CCCCC2)CCCCC1	inactive: 5.3%
CC(C)N1C(=O)CC2(CCN(CCOC(=O)C(O)(c3ccccc3)c3ccccc3)CC2)C1=O	inactive: 5.2%
COc1cc(SC)ccc1C(=O)NCC1(N(C)C)CCCCC1	inactive: 0.5%
CCN(CC)CC(C)C(C)OC(=O)C(O)(c1ccccc1)c1ccccc1 (centres undefined)	inactive: 6.1%
Cc1ccc(C(=O)NCC2(N3CCCCC3)CCCCC2)cc1	inactive: -0.7%
O=C(NCC1(N2CCCCC2)CCCCC1)c1cc([N+](=O)[O-])ccc1Cl	inactive: -6.4%
CN1[C@@H]2CC[C@H]1CC(OC(=O)C(O)(c1ccccc1)c1ccccc1)C2 (some centres undefined)	inactive: -1.8%
COc1ccc(Br)c(C(=O)NCC2(N3CCCCC3)CCCCC2)c1	inactive: 1.4%
CN(C)c1cccc(C(=O)NCC2(N(C)C)CCCCC2)c1	inactive: 7.8%
CC(C)Oc1ccc(C(=O)NCC2(N(C)C)CCCCC2)cc1	inactive: 0.1%
O=C(OC1CN2CCC1CC2)C(CO)(c1ccccc1)c1ccccc1 (centres undefined)	inactive: 2.5%
COc1ccc(Cl)cc1C(=O)NCC1(N(C)C)CCCCC1	inactive: -1.3%
COc1cccc(C(=O)NCC2(N3CCCCC3)CCCCC2)c1	inactive: 2.5%
O=C(NCC1(N2CCCCC2)CCCCC1)c1cccc(Cl)c1	inactive: 0.8%
CN(C)C1(CNC(=O)c2ccc(Br)cc2)CCCCC1	inactive: -7.5%
COc1cc(C(=O)NCC2(N(C)C)CCCCC2)c([N+](=O)[O-])cc1OC	inactive: 3.1%
